ChEMBL document CHEMBL1146080, “Novel, achiral 1,3,4-benzotriazepine analogues of 1,4-benzodiazepine-based CCK(2) antagonists that display high selectivity over CCK(1) receptors” (J Med Chem, 2006)

Biological target: T1, Gastrin/cholecystokinin type B receptor (Rattus norvegicus, UniProt P30553)
T1 sequence (P30553 whole entry): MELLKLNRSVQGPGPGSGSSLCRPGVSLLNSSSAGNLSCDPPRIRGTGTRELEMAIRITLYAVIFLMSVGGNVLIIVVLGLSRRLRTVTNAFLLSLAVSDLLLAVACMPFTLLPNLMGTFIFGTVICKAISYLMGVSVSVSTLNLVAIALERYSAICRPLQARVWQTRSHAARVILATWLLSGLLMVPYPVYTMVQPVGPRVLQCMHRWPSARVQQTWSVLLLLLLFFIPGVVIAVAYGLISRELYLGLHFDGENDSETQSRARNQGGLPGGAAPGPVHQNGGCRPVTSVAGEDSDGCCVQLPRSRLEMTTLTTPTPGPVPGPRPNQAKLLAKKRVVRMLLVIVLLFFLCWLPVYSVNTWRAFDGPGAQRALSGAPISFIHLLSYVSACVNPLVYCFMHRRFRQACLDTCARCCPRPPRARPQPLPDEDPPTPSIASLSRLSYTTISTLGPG
Assay: Affinity for CCK2 receptor assessed by inhibition of pentagastrin-stimulated acid secretion in perfused rat stomach
Type: functional, tissue-based
Conditions: read-out: pA2 (converted)

Kb: 1.32 nM
Compound: CNc1cccc(NC(=O)CN2N=C(C3CCCCC3)c3ccccc3N(CC(=O)C(C)(C)C)C2=O)c1
